Converted amounts (≈) assume the structure as drawn.
Assays:
Assay type in all cases: cell-based
human red blood cells = assay: Hemolytic action (erythrocyte hemolytic activity)
Description: To confirm the hemolytic action, the erythrocyte hemolytic activity (%) measured by the following method was calculated. Specifically, human red blood cells were diluted in physiological saline solution (PBS, pH 7.4) to a concentration of 8%, and each of the triazine compounds of the following example was treated at a concentration of 0 to 300 μM/well, so as to be reacted at 37° C. for one hour. Then, an amount of hemoglobin contained in the supernatant obtained by centrifugation at 1,000×g was identified by measuring the absorbance at a wavelength of 414 nm. As a reference for the degree of cell destruction, a control group was treated with 1% Triton X-100 (Sigma, USA) and reacted at 37° C. for one hour, after which the absorbance of the obtained supernatant was measured. […] Erythrocyte hemolytic activity (%)=(Absorbance A−Absorbance B)/(Absorbance C−Absorbance B)×100 [Equation 2]
[In Equation 2, Absorbance A represents the absorbance of the reaction solution treated with each triazine compound measured at a wavelength of 414 nm; Absorbance B represents the absorbance of the reaction solution treated with PBS measured at a wavelength of 414 nm; and Absorbance C represents the absorbance of the reaction solution treated with 1% Triton X-100 measured at a wavelength of 414 nm.]

[1] = system: Escherichia coli (KCTC1682); details: Gram-negative bacteria; 37° C., 12 hours
Description: (§1) To confirm the antibacterial activity, a minimal inhibitory concentration (MIC) value, which is a minimum concentration at which fungus bodies are not divided, was measured. Specifically, the strains disclosed in the following table 1 were purchased, incubated in each medium up to a mid-log phase, diluted to a fungus body concentration of 2×10^5 cells/100 μl, and inoculated into a micro titrate plate (Nunc, USA). […] A control group was treated with melittine by the same method as above, so as to determine an MIC value for each strain.

[2] = system: Staphylococcus epidermidis (KCTC 1917); details: Gram-positive bacteria; 37° C., 12 hours
Description: as §1

[3] = system: Pseudomonas aeruginosa (KCTC 1637); details: Gram-negative bacteria; 37° C., 12 hours
Description: as §1

[4] = system: Staphylococcus aureus (KCTC 1621); details: Gram-positive bacteria; 37° C., 12 hours
Description: as §1

CC[C@H](C)[C@H](NC(=O)CN)C(=O)NCC(=O)N[C@@H](C)C(=O)N[C@H](C(=O)N[C@@H](CC(C)C)C(=O)N[C@@H](CCCCN)C(=O)N[C@H](C(=O)N[C@@H](CC(C)C)C(=O)N[C@H](C(=O)N[C@H](C(=O)NCC(=O)N[C@@H](CC(C)C)C(=O)N1CCC[C@H]1C(=O)N[C@@H](C)C(=O)N[C@@H](CC(C)C)C(=O)N[C@H](C(=O)N[C@@H](CO)C(=O)N[C@@H](Cc1c[nH]c2ccccc12)C(=O)N[C@H](C(=O)N[C@@H](CCCCN)C(=O)N[C@@H](CCCNC(=N)N)C(=O)N[C@@H](CCCCN)C(=O)N[C@@H](CCCNC(=N)N)C(=O)N[C@@H](CCC(N)=O)C(=O)N[C@@H](CCC(N)=O)C(N)=O)[C@@H](C)CC)[C@@H](C)CC)[C@@H](C)O)[C@@H](C)O)C(C)C)C(C)C [Melittin]
hemolysis (human red blood cells; concentration of 80 μM/well): 100%
MHC (human red blood cells; human red blood cells, 37° C., one hour): 4 µM
MIC Escherichia coli (KCTC1682) [1]: 2.5 µM (≈ 7.12 µg/mL)
MIC Staphylococcus epidermidis (KCTC 1917) [2]: 5 µM (≈ 14.2 µg/mL)
MIC Pseudomonas aeruginosa (KCTC 1637) [3]: 5 µM (≈ 14.2 µg/mL)
MIC Staphylococcus aureus (KCTC 1621) [4]: 2.5 µM (≈ 7.12 µg/mL)

Source: patent US12012387B2, “Triazine compound and use thereof” (priority 2018, dated 2024)
